# Where a name gives a salt, the structure may show the parent alone.
# Key:
# [1] = Antagonism by levallorphan in electric stimuli test; conditions: electric stimuli test in mice; levallorphan (narcotic antagonist)
# [2] = Electric stimuli test; conditions: Mus musculus, read-out: Electric Stimuli Test ED50
# [3] = AgNO3 arthritis test; conditions: for ED50: Rattus norvegicus, sc, read-out: AgNO3 Arthritis Test ED50
# [4] = Bradykinin nociception test; conditions: for ED50: Rattus norvegicus, read-out: Bradykinin Nociception Test ED50
# [5] = rat, in vivo
# [6] = Tolerance test; format: in vivo; conditions: continuous administration
# [7] = Mouse jumping test; conditions: administration at a lethal dose
# [8] = in vivo; conditions: rat
# [9] = system: evoked potentials in central nervous system; experiment: Effect on the various evoked potentials in central nervous system; format: in vivo, Male Wistar rats; set-up: key to Amplitude of Evoked Responses, VP-COR / Amplitude of Evoked Responses, HIP-AMY / Amplitude of Evoked Responses, HIP-SEP: -: No change; --: No change; (+): Levallorphan antagonism; (-): Levallorphan antagonism
# Method: Male Wistar rats, weighing 300-350 g, were used under ethyl ether anesthesia. The trachea and femoral vein were cannulated for artificial respiration and drug injection, respectively. Immobilization of the rat was maintained by gallamine thioethiodide (10 mg/kg) given intravenously every one hours. All wound edges were infiltration with carbocaine hydrochloride. The experiments began after at least 2 hours had elapsed from discontinuance of ether anesthesia. The COR (somatosensory cortex) evoked potentials by VP (neucleus ventralis posterior thalamus) stimulation (VP - COR evoked potential) were recorded from somatosensory cortex, through a silver electrode applied directly to the cortex. In order to record VP and MRF (midbrain reticular formation) evoked potentials by sciatic nerve stimulation or AMY (amygdala) and SEP (septum) evoked potentials by HIP (hippocampus) stimulation, bipolar stainless steel electrodes were stereotaxically placed into the VP, MRF, AMY, SEP and HIP. The stimuli were delivered to various sites every 2 seconds from a stimulation and consisted of 0.1 msec rectangular pulses (twice threshold intensity). The evoked responses were visualized on an oscilloscope. All records were made up of 20 superimposed tracings.
# [10] = Phenylquinone writhing test; conditions: for ED50: Mus musculus, read-out: Phenylquinone Writhing Test ED50
# [11] = system: central nervous system; experiment: Activity on central nervous system; conditions: in vivo
# [12] = Hot plate test; conditions: Rattus norvegicus, sc, read-out: Hot Plate Test ED50
# [13] = Tooth pulp nociception test
# [14] = rat, in vivo; remark: listed apart in the source
# [15] = Analgesic activity (overall)
# [16] = calculated from inhibition (%) in a low dose
structure (smiles),measurement,setting,value
"CN1C(=O)CCN(C2CCN(CC=Cc3ccccc3)CC2)C1=O [Test compound A, 1-(1-cinnamyl-4-piperidyl)-3-methyl-hydrouracil hydrochloride]",Influence of levallorphan on analgesic activity,[1],did not influence the analgesic activity
same,ED50,[2]; po,200 mg/kg
same,ED50,[2]; sc,23 mg/kg
same,ED50,[3],7 mg/kg
same,"Relative potency (Test compound A = 1), AgNO3 Arthritis Test",[3]; calculated from ED50,1
same,"Relative potency (Test compound A = 1), AgNO3 Arthritis Test",[3]; [16],1
same,Inhibition (%) of Occurrence of Pain,"[3]; rats, 5 mg/kg s.c.",42%
same,ED50,[4]; po,40 mg/kg
same,ED50,[4]; sc,4 mg/kg
same,"Relative potency (Test compound A = 1), Bradykinin Nociception Test",[4]; calculated from ED50,1
same,"Relative potency (Test compound A = 1), Bradykinin Nociception Test",[4]; [16],1
same,Inhibition (%) of Occurrence of Pain,"[4]; rats, 2.5 mg/kg s.c.",38%
same,body weight reduction,[5],not reduced
same,cross tolerance against codeine,[6],did not show a cross tolerance against codeine
same,tolerance (decrease of effects),[6],did not cause a significant decrease of effects
same,jumping symptom,[7],did not cause any jumping symptom
same,LD50,[8]; ip,150 mg/kg
same,LD50,[8]; po,450 mg/kg
same,LD50,[8]; sc,300 mg/kg
same,levallorphan antagonism of VP - COR response,[9],levallorphan did not antagonize the response
same,"Amplitude of Evoked Responses, HIP-AMY",[9]; 5 mg/kg i.v.,--
same,"Amplitude of Evoked Responses, HIP-SEP",[9]; 5 mg/kg i.v.,--
same,"Amplitude of Evoked Responses, VP-COR",[9]; 5 mg/kg i.v.,--
same,"Amplitude of Evoked Responses, HIP-AMY",[9]; 10 mg/kg i.v.,--
same,"Amplitude of Evoked Responses, HIP-SEP",[9]; 10 mg/kg i.v.,--
same,"Amplitude of Evoked Responses, HIP-AMY",[9]; 25 mg/kg i.v.,--
same,"Amplitude of Evoked Responses, HIP-SEP",[9]; 25 mg/kg i.v.,--
same,HIP - AMY evoked potential,[9]; i.v.,no effect
same,HIP - SEP evoked potential,[9]; i.v.,no effect
same,amplitude of the VP - COR evoked potential,[9]; i.v.,reduced the amplitude of the VP - COR evoked potential
same,ED50,[10]; po,17 mg/kg
same,ED50,[10]; sc,1 mg/kg
same,"Relative potency (Test compound A = 1), Phenylquinone Writhing Test",[10]; calculated from ED50,1
same,"Relative potency (Test compound A = 1), Phenylquinone Writhing Test",[10]; [16],1
same,Inhibition (%) of Occurrence of Pain,"[10]; mice, 0.5 mg/kg s.c.",48%
same,muscle relaxant activity,[11],weak
same,reserpine potentiating activity,[11],weak
same,suppression of spontaneous locomotor activity,[11],weak
same,ED50,[12],10 mg/kg
same,"Relative potency (Test compound A = 1), Tooth Pulp Nociception Test",[13]; calculated from ED50,1
same,"Relative potency (Test compound A = 1), Tooth Pulp Nociception Test",[13]; [16],1
same,increasing rate in threshold,"[13]; rabbits, 2.5 mg/kg i.v.",75%
same,compensatory adjustment against codeine,[14],had not compensatory adjustment against codeine
same,analgesic activity in a low dose,[15],stronger than tramadol and pentazocine
"CN1C(=O)CCN(C2CCN(CCc3ccccc3)CC2)C1=O [Test compound C, 1-(1-phenethyl-4-piperidyl)-3-methyl-hydrouracil hydrochloride]",Influence of levallorphan on analgesic activity,[1],did not influence the analgesic activity
same,ED50,[2]; po,220 mg/kg
same,ED50,[2]; sc,50 mg/kg
same,ED50,[3],45 mg/kg
same,ED50,[4]; po,400 mg/kg
same,ED50,[4]; sc,70 mg/kg
same,body weight reduction,[5],not reduced
same,cross tolerance against codeine,[6],did not show a cross tolerance against codeine
same,tolerance (decrease of effects),[6],did not cause a significant decrease of effects
same,jumping symptom,[7],did not cause any jumping symptom
same,LD50,[8]; ip,150 mg/kg
same,LD50,[8]; po,900 mg/kg
same,LD50,[8]; sc,700 mg/kg
same,"Amplitude of Evoked Responses, HIP-AMY",[9]; 5 mg/kg i.v.,--
same,"Amplitude of Evoked Responses, HIP-SEP",[9]; 5 mg/kg i.v.,--
same,"Amplitude of Evoked Responses, VP-COR",[9]; 5 mg/kg i.v.,--
same,"Amplitude of Evoked Responses, HIP-AMY",[9]; 10 mg/kg i.v.,--
same,"Amplitude of Evoked Responses, HIP-SEP",[9]; 10 mg/kg i.v.,--
same,"Amplitude of Evoked Responses, HIP-AMY",[9]; 25 mg/kg i.v.,--
same,"Amplitude of Evoked Responses, HIP-SEP",[9]; 25 mg/kg i.v.,--
same,ED50,[10]; po,5 mg/kg
same,ED50,[10]; sc,1.5 mg/kg
same,ED50,[12],10 mg/kg
same,compensatory adjustment against codeine,[14],had not compensatory adjustment against codeine

# — US4514403A, “Hydrouracil compounds” (Yoshitomi Pharmaceutical Industries Ltd., priority 1980, dated 1985)
